{
  "source": "patent US7740831B2",
  "about": "“Compositions for potentiating glutathione” (Fancl Corporation, priority 2001, dated 2010)",
  "system": "Clone 9 human liver cells",
  "assay": "Effect on liver cell (intracellular glutathione)",
  "settings": "compound 10 μg/ml, 24 hours",
  "protocol": "Clone 9 human liver cells (8×10^6 cells) (manufactured by Dainippon Pharmaceutical Co., Ltd.) were inoculated in a petri dish (manufactured by Nunc) with a diameter of 6 cm, and the cells were cultured in DMEM containing 10% deactivated FBS for 3 days at 37° C. in the presence of 5% carbon dioxide gas. When the cells were 80% confluent, the medium was exchanged with DMEM containing 0.5% FBS. After the cells were naturalized for 24 hours, the culture medium was removed by suction and exchanged with fresh DMEM containing 0.5% FBS, and the test substances were dissolved in ethanol. […] 24 hours after the addition, the cells were collected, and glutathione measurements were performed by the method described in Example 5.",
  "data": [
    {"smiles": "OC[C@H]1O[C@@H](OCCc2ccc(O)c(O)c2)[C@H](O)[C@@H](O)[C@@H]1O", "note": "[DPE-1-O-β-D-Glucopyranocide, 2-(3,4-dihydroxyphenyl)ethanol-1-O-β-D-glucopyranocide]", "values": [
      {"measurement": "Effect on hepatocyte (glutathione), ratio to control", "result": 1.13}
    ]},
    {"smiles": "OCCc1ccc(O[C@@H]2O[C@H](CO)[C@@H](O)[C@H](O)[C@H]2O)c(O)c1", "note": "[DPE-4′-O-β-D-Glucopyranocide, 2-(3,4-dihydroxyphenyl)ethanol-4′-O-β-D-glucopyranocide]", "values": [
      {"measurement": "Effect on hepatocyte (glutathione), ratio to control", "result": 1.19}
    ]}
  ]
}
